# Measured values: patent US10087225B2, “Formulation of MK2 inhibitor peptides” (MOERAE MATRIX, INC., priority 2015, dated 2018)
# Protein sequences, listed by entry. Tags and fused reporters are not part of them. Lines headed by an entry give the natural chain unless they say otherwise; changes in a name come on top. Residues count along the entry.
# UniProt P00519, whole entry: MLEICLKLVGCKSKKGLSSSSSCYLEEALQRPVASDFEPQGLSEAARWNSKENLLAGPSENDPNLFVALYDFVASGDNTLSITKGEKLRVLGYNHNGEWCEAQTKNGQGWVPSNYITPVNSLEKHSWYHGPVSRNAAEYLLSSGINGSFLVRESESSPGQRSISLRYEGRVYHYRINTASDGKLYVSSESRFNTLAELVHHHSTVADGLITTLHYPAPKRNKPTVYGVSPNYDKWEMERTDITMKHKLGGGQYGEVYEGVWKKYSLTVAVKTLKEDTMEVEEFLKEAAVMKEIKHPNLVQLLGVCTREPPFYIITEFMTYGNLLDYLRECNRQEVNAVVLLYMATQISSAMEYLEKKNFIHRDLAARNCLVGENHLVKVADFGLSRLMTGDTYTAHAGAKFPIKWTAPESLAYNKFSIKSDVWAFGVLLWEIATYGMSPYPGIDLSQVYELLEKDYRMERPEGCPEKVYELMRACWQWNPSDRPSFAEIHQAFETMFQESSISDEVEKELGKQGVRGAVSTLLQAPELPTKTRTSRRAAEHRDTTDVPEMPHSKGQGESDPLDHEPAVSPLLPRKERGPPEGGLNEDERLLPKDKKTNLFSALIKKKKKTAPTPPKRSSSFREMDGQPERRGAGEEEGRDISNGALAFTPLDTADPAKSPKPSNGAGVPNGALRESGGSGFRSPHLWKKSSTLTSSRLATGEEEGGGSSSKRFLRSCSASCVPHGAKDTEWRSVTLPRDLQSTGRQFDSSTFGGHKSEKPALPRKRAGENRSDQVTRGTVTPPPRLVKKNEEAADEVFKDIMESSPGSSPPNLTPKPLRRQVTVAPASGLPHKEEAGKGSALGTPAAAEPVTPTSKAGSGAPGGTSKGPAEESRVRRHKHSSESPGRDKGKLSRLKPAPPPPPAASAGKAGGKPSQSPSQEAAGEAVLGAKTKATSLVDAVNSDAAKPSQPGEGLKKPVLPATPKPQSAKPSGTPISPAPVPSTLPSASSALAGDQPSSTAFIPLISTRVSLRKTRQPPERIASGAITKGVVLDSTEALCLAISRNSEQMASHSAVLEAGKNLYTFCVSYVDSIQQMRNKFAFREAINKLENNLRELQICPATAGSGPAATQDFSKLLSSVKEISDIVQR
# UniProt P50750, whole entry: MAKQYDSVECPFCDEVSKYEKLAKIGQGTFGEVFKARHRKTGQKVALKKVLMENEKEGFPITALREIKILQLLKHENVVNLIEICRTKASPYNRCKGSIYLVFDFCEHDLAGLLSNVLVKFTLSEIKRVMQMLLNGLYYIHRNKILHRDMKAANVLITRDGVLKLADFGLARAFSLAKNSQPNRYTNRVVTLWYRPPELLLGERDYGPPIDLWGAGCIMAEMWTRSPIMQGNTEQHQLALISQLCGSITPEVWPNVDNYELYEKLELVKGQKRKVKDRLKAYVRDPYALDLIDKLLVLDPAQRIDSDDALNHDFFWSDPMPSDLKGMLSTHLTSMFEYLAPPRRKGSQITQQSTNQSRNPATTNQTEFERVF
# UniProt P35916, 25-1363: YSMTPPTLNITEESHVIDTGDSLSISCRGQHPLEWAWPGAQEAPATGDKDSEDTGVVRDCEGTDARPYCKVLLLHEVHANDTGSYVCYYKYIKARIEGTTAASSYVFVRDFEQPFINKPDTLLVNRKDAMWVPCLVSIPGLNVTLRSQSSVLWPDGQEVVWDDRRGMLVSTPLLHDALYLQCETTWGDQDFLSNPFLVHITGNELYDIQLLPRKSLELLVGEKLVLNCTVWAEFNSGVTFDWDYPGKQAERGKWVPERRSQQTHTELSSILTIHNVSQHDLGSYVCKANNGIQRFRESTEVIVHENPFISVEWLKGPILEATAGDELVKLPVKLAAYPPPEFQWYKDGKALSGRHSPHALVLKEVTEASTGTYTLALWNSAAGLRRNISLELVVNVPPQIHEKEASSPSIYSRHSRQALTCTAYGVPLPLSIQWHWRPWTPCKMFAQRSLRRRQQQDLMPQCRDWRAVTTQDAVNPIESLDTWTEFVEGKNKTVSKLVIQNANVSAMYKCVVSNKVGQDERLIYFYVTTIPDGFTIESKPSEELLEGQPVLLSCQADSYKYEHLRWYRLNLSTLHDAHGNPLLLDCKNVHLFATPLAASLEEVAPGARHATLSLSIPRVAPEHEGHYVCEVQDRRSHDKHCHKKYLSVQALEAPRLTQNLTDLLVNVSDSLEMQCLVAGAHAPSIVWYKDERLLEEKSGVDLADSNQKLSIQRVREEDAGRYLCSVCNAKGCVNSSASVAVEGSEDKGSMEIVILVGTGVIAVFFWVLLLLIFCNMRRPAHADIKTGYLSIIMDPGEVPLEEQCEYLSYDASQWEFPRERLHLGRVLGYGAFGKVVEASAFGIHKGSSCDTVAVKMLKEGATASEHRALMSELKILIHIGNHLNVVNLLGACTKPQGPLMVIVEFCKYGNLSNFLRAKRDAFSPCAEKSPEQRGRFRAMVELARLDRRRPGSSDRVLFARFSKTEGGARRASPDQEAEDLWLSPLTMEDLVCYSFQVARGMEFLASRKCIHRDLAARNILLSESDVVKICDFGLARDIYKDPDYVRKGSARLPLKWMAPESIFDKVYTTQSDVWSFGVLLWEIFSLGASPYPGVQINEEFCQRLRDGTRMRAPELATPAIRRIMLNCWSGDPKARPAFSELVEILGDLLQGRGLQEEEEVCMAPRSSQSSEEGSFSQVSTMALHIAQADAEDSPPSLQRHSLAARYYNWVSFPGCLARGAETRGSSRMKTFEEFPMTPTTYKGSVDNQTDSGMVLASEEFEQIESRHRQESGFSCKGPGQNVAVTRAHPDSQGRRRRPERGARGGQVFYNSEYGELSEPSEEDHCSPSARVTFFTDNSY
# UniProt P08631: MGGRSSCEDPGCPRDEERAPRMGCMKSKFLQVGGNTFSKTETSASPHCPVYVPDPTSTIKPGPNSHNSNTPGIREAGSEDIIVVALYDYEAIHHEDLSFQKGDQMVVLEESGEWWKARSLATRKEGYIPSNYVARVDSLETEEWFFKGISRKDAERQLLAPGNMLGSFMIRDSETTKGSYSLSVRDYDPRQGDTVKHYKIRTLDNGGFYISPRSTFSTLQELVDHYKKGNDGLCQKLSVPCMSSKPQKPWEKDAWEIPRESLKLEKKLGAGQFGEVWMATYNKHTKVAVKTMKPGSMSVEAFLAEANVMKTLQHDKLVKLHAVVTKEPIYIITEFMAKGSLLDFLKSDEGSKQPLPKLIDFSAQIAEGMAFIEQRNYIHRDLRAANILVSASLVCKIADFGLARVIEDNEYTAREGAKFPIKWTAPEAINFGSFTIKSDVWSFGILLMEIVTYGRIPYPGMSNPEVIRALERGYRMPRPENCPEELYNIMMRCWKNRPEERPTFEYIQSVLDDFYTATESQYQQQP
# UniProt P06239: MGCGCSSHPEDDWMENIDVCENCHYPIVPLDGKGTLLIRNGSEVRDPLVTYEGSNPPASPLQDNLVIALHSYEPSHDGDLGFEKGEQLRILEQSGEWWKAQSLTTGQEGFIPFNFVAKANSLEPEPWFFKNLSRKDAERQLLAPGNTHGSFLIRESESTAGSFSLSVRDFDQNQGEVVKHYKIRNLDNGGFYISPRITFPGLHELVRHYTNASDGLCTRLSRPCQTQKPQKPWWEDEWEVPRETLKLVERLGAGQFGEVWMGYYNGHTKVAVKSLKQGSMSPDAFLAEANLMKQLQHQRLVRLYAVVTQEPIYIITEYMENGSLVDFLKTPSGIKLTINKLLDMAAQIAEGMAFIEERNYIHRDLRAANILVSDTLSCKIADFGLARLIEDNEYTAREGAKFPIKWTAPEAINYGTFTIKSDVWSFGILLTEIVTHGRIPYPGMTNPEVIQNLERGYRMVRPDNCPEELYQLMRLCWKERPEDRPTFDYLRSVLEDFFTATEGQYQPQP
# UniProt Q8N4C8: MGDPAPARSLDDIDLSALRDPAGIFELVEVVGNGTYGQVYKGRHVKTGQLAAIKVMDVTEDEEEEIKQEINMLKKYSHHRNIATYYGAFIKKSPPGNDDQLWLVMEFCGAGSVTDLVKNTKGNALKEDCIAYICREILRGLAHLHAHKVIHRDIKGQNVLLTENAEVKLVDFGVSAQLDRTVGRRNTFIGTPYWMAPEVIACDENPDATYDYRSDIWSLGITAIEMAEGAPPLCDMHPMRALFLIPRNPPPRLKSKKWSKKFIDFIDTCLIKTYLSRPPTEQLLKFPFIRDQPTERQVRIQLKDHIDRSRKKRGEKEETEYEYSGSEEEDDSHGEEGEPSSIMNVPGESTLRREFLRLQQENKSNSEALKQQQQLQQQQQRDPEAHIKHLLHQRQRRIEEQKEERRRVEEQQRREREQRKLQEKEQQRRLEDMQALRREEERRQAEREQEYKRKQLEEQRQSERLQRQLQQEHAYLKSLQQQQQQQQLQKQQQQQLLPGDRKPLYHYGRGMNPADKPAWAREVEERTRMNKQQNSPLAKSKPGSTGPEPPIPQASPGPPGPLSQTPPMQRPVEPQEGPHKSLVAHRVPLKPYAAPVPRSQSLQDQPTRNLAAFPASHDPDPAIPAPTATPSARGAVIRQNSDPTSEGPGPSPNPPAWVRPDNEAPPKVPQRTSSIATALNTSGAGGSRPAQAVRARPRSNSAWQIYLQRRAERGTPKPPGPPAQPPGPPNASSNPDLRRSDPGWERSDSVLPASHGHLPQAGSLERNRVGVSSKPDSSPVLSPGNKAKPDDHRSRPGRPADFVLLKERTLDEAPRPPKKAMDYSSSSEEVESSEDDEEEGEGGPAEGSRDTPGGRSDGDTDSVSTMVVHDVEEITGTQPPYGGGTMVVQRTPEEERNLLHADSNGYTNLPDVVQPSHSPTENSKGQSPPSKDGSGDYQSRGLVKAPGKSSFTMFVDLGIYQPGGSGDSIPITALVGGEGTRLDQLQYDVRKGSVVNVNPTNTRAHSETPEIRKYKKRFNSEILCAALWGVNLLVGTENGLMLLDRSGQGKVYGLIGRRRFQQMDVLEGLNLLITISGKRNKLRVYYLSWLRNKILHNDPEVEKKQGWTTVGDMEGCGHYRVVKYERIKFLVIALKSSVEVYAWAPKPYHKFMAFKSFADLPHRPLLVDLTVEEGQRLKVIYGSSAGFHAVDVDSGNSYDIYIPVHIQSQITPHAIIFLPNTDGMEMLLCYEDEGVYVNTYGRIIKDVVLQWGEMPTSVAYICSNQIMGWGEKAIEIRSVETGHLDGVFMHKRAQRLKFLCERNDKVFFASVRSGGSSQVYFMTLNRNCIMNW
# UniProt Q9Y243: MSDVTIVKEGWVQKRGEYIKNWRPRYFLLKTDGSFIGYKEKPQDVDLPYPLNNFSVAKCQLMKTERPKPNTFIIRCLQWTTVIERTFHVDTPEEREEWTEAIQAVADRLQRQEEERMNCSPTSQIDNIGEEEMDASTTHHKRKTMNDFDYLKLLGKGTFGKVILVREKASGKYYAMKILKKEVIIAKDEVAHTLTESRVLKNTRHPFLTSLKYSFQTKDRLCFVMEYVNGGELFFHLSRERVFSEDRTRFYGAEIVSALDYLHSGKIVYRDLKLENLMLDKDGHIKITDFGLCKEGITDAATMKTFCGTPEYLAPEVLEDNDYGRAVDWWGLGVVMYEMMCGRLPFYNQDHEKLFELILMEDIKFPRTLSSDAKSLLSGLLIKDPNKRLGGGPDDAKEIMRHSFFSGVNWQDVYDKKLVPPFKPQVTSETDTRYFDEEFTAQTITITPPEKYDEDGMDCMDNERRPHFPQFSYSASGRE
# UniProt Q9NYY3: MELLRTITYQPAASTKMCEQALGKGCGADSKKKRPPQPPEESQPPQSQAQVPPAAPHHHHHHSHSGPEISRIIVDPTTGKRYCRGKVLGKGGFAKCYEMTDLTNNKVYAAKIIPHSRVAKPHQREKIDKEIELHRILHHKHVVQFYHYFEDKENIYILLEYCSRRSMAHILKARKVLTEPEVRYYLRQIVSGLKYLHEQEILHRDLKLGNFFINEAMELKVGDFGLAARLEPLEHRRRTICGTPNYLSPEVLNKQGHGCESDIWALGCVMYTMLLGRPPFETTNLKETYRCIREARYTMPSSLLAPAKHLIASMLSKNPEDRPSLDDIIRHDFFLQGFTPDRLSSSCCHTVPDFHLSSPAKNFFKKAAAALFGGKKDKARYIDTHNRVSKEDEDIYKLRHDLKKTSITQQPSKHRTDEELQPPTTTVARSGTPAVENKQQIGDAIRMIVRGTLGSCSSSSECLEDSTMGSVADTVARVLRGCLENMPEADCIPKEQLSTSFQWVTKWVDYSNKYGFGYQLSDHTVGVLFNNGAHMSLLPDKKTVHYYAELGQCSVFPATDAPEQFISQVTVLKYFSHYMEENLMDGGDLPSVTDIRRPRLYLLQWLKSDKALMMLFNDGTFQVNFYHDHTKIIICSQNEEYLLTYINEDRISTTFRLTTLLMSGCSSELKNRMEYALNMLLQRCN
# Assays:
# Test in all cases: Kinase Profiling Assay
# Assay type in all cases: biochemical
# Details in all cases: 100 μM
# Ab1(h) = Ab1(h) (Homo sapiens, UniProt P00519)
# CDK9/cyclin T1(h) = CDK9/cyclin T1(h) (Homo sapiens, UniProt P50750)
# EphA1(h) = biological target: T1, EphA1(h) (Homo sapiens, UniProt P21709)
# T1 sequence (P21709 26-976): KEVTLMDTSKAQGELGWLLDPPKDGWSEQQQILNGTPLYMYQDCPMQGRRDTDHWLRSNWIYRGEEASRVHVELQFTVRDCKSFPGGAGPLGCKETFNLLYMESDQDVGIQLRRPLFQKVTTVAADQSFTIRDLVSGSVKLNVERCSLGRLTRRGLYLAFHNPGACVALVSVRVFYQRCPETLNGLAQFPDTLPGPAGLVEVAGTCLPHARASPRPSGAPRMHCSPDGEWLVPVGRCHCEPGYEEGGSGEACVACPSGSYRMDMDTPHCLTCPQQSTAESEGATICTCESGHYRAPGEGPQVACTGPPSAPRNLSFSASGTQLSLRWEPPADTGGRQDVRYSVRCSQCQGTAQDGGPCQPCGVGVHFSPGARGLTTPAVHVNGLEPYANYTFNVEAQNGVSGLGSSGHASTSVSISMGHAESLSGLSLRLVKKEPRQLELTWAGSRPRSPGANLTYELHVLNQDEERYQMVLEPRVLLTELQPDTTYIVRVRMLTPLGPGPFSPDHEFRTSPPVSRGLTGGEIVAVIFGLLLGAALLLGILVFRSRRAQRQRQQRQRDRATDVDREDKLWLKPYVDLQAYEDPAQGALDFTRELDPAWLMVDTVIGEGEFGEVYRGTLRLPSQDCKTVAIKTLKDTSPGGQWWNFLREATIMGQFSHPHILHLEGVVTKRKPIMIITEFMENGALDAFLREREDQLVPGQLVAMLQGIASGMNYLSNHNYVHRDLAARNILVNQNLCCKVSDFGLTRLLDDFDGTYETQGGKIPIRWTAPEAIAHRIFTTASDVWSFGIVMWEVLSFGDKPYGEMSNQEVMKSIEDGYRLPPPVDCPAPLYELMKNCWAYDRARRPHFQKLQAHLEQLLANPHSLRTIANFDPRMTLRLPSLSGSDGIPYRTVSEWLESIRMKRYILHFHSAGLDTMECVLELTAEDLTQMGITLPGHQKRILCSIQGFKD
# Flt4(h) = Flt4(h) (Homo sapiens, UniProt P35916)
# Hck(h) = Hck(h) (Homo sapiens, UniProt P08631)
# IR(h), activated = IR(h), activated (Homo sapiens, UniProt P06213)
# Lck(h) = Lck(h) (Homo sapiens, UniProt P06239)
# MINK(h) = MINK(h) (Homo sapiens, UniProt Q8N4C8)
# MKK7β(h) = biological target: T2, MKK7β(h) (Homo sapiens, UniProt O14733)
# T2 sequence (O14733 1-419): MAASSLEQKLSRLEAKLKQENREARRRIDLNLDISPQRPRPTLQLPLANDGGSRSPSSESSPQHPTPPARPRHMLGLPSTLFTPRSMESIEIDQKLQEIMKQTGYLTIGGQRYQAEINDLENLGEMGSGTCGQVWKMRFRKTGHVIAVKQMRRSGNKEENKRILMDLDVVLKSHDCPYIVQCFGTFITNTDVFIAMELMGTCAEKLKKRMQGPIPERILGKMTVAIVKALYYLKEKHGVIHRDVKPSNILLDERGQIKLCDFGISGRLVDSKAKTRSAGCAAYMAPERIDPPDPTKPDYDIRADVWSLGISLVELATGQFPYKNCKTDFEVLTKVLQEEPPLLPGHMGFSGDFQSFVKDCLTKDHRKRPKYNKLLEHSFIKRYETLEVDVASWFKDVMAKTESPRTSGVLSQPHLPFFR
# PKBγ(h) = PKBγ(h) (Homo sapiens, UniProt Q9Y243)
# Snk(h) = Snk(h) (Homo sapiens, UniProt Q9NYY3)
# TAO3(h) = biological target: T3, TAO3(h) (Homo sapiens, UniProt Q9H2K8)
# T3 sequence (Q9H2K8 1-898): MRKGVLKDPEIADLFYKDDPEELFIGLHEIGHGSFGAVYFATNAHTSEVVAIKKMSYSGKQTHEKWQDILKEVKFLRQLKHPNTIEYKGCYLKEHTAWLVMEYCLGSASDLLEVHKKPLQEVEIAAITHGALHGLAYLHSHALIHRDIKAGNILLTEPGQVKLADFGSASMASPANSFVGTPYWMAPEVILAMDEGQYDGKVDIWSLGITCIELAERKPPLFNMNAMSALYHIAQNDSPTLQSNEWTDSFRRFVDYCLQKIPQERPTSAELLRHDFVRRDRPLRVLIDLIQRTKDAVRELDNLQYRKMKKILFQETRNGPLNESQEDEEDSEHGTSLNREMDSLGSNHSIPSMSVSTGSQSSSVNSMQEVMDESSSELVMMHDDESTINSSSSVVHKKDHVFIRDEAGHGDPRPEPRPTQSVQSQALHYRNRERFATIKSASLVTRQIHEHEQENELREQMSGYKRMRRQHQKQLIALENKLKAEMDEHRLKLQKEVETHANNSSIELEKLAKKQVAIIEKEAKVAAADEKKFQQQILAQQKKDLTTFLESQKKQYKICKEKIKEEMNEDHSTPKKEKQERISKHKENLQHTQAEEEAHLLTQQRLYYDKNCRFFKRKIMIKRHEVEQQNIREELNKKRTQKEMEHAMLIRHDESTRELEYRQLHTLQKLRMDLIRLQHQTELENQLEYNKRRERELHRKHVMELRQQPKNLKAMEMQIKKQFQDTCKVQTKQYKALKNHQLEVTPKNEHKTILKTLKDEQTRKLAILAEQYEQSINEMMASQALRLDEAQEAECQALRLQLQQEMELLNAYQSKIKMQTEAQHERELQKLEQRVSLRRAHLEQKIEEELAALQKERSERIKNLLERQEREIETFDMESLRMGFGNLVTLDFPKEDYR
# VRK2(h) = VRK2(h) (Homo sapiens, UniProt Q86Y07)
sequence,measurement,setting,value
YARAAARQARAKALNRQLGVA (Mammalian) [MMI-0200],% activity,Ab1(h),107%
same,% activity,CDK9/cyclin T1(h),103%
same,% activity,EphA1(h),136%
same,% activity,Flt4(h),105%
same,% activity,Hck(h),107%
same,% activity,"IR(h), activated",105%
same,% activity,Lck(h),113%
same,% activity,MINK(h),103%
same,% activity,MKK7β(h),117%
same,% activity,PKBγ(h),103%
same,% activity,Snk(h),109%
same,% activity,TAO3(h),102%
same,% activity,VRK2(h),109%
